Values quoted from earlier work as cited in patent US20200003762A1, “Diagnostics Platform for Mitochondrial Dysfunctions/Diseases” (BioElectron Technology Corporation, priority 2018, published 2020).

The chains behind the UniProt entries cited, without tags or fusion partners. Where a name states a change or a piece, a line headed by the entry shows the natural chain unless it says otherwise.
UniProt P00156: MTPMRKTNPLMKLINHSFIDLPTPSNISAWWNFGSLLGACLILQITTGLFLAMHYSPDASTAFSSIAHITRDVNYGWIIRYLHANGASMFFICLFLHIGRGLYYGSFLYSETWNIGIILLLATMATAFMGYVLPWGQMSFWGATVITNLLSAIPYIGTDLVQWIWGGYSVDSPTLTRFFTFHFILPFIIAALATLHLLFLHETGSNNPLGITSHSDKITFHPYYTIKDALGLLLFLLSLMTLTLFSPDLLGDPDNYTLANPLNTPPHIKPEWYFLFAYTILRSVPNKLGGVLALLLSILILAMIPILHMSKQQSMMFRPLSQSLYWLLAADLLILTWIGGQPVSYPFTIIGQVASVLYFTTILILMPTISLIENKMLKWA

Biological target: complex III (Homo sapiens, UniProt P00156)
Conditions: cited from earlier work

Substance: Antimycin A from Streptomyces sp. [A8674]
- electron transfer at complex III: Inhibits electron transfer at
